Measured affinities in a library of Ab-14 light chain variants

Data: MIT Lincoln Laboratory AlphaSeq set, Engelhart et al. 2022, doi:10.1038/s41597-022-01779-4, as distributed in FLAb.

Antigen: PDVDLGDISGINAS, a 14-residue peptide of the SARS-CoV-2 spike HR2 region.

Each scFv is VH, a 15-residue (Gly4Ser)3 linker, VL, as in the parent Ab-14, and differs from it in the CDRs of the light chain only.
VH: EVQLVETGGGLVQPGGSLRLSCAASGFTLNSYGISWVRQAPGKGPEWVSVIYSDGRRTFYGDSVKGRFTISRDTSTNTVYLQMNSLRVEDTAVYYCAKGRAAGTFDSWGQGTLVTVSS
VL: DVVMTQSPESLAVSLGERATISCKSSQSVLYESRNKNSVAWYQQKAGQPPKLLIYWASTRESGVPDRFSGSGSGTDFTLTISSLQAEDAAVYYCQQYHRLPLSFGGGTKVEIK

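The parent was found by panning a naive human phage display library on the peptide. Library AAYL50 holds single substitutions and randomly drawn double and triple substitutions in the CDRs. AlphaSeq pools MATa yeast showing the antibodies with MATalpha yeast showing the peptide. The frequency of each diploid, read from paired DNA barcodes, reflects how well the two displayed proteins bind. Read counts were normalised to the haploid input and turned into Kd by a linear fit to BCL2-family pairs of known affinity, for each replicate. The assay was run in three technical replicates.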

Each variant is given by its three light chain CDRs, as the data file delimits them; those of the parent are KSSQSVLYESRNKNSVA, WASTRES, QQYHRLPLS.
Every variant below is changed at K36 of the VL (sequential numbering).
The Kd shown is the geometric mean over detected replicates; a lower Kd is a better binder.
Where no diploid with the target was found in any replicate, the entry reads "nd": below detection, most likely a poor binder, though not proof of it.

| CDR-L1 | CDR-L2 | CDR-L3 | Kd | seen in | control signals |
|---|---|---|---|---|---|
| KSEQSVLYESRNPNSVA | WASTRES | QQYHRLPDS | 24 nM | 3 of 3 | 4 of 9 |
| KSSQSVLYESRNINSVA | WASTRES | QQYHRLTLS | 16 µM | 2 of 3 | 0 of 9 |
| KSSQSVLYGSRNRNSVA | WASTRES | QQYHRLPLS | 23 nM | 3 of 3 | 0 of 9 |
| KSSQSVLYCSRNHNSVA | WASTRES | QQNHRLPLS | 540 nM | 3 of 3 | 3 of 9 |
| KSSQSVHYESRNSNSVA | WASTREI | QQYHRLPLS | 3.1 nM | 3 of 3 | 0 of 9 |
| KPSQSVLYESRNMNSVA | WQSTRES | QQYHRLPLS | nd | 0 of 3 | 1 of 9 |
| KSQQSVLYESRNSNSVP | WASTRES | QQYHRLPLS | nd | 0 of 3 | 0 of 9 |
| KSSQSVLYETRNMNSLA | WASTRES | QQYHRLPLS | 40 nM | 3 of 3 | 2 of 9 |
| KSSQSVLYESRNVNSVA | WMSTRES | QRYHRLPLS | 210 nM | 3 of 3 | 3 of 9 |
| KSSQSQLYESRNYNSVA | QASTRES | QQYHRLPLS | 870 pM | 3 of 3 | 4 of 9 |
| KSSYSVLYESRNCNSVA | WVSTRES | QQYHRLPLS | 1.2 µM | 3 of 3 | 4 of 9 |
| KSSFDVLYESRNRNSVA | WASTRES | QQYHRLPLS | 24 nM | 3 of 3 | 1 of 9 |
| KSSQSVLYESRFPNSVA | WISTRES | QQYHRLPLS | 38 nM | 1 of 3 | 0 of 9 |
| KSYQSVLYESRLQNSVA | WASTRES | QQYHRLPLS | 43 nM | 3 of 3 | 5 of 9 |
| KSSQSVLYESRNHNMVA | WASTREC | QQYHRLPLS | 4.6 µM | 3 of 3 | 1 of 9 |
| KSSQSVLYESRVDNSVA | WASTRES | QQYHILPLS | 21 nM | 3 of 3 | 0 of 9 |
| KSSQSVPYESRNNNSVA | WASTRES | QQYWRLPLS | 2.8 nM | 3 of 3 | 4 of 9 |
| KSSQSVTYESRNYNSVA | WASTRES | QQYHRLPLD | 5.4 µM | 3 of 3 | 1 of 9 |
| KSSQSVLYESRNDMSVA | WASTRES | QQYHRLPLS | 570 nM | 3 of 3 | 2 of 9 |
| TSSQSVLYESRNRNSVA | WASTRES | QQYHRLPYS | 1.6 µM | 3 of 3 | 3 of 9 |
| KSEQSVLYESRNGNNVA | WASTRES | QQYHRLPLS | 2.8 nM | 3 of 3 | 0 of 9 |
| KSSYSVLYESRNNNSVA | WASTRES | CQYHRLPLS | 53 nM | 3 of 3 | 1 of 9 |
| KVSPSVLYESRNFNSVA | WASTRES | QQYHRLPLS | 1.0 nM | 3 of 3 | 1 of 9 |
| KSVQSVLYESRNNNSVI | WASTRES | QQYHRLPLS | nd | 0 of 3 | 1 of 9 |
| KSSQSVLYESRNLNSVD | WASERES | QQYHRLPLS | 11 µM | 3 of 3 | 5 of 9 |
| KLSKSVLYESRNWNSVA | WASTRES | QQYHRLPLS | 4.5 nM | 3 of 3 | 4 of 9 |
| KSSQSVLYESRNCNSCA | WASTRES | QQYHRLPLS | nd | 0 of 3 | 0 of 9 |
| KSSQSVLWESRAANSVA | WASTRES | QQYHRLPLS | 49 nM | 3 of 3 | 5 of 9 |
| KSSQSVLYESRNHNLLA | WASTRES | QQYHRLPLS | nd | 0 of 3 | 0 of 9 |
| KSSQSVLYESRNHNSVE | WASTRES | QQYGRLPLS | nd | 0 of 3 | 1 of 9 |
| KSSQSVLYESRNNNSVA | WASTRES | QQYHRLPLS | nd | 0 of 3 | 0 of 9 |
| KSSQSVLYESRNQNSVA | WAMTRES | QQYHQLPLS | 33 nM | 3 of 3 | 1 of 9 |
| KSSQSNLYESRNVNSVA | WASTRED | QQYHRLPLS | 4.1 nM | 3 of 3 | 1 of 9 |
| KSPQSVLYESRNTNSVA | WASTRES | QQYHRLPLS | 78 nM | 3 of 3 | 6 of 9 |
| KFSQSVLYESRNANSVA | WASTRES | QQMHRLPLS | 300 nM | 1 of 3 | 0 of 9 |
| KSSQSVMYESRNLNSVA | WASTRES | QQAHRLPLS | 2.0 µM | 3 of 3 | 2 of 9 |
| KSSQSVLYESRNPNSVL | WASTRES | QQYHRLPPS | nd | 0 of 3 | 1 of 9 |
| KSRQSVLYESRNCNSVA | WASTRES | KQYHRLPLS | 1.6 mM | 1 of 3 | 3 of 9 |
| KSSQSVLYESRNYNSVA | WASTRES | QPYHRLPLS | 50 µM | 3 of 3 | 6 of 9 |
| KLSQSVLYESRNLNSVA | WFSTRES | QQYHRLPLS | 3.3 µM | 3 of 3 | 3 of 9 |
| SKSQSVLYESRNRNSVA | WASTRES | QQYHRLPLS | 560 nM | 3 of 3 | 0 of 9 |
| KSSYSVLYVSRNMNSVA | WASTRES | QQYHRLPLS | 370 nM | 3 of 3 | 2 of 9 |
| KSSQSFLYESRNTNSVA | WASTRES | QQYHRLPLR | 630 nM | 3 of 3 | 0 of 9 |
| KSSQSVLYESRNSNSVA | WASTRES | QQYVRLPNS | 16 nM | 3 of 3 | 3 of 9 |
| KSSQSILYESRNDNSVA | WASTRES | QQYHRLPLS | 5.3 nM | 3 of 3 | 1 of 9 |
| KSSQSVLYESRNNNSVA | WFSQRES | QQYHRLPLS | 1.1 µM | 2 of 3 | 1 of 9 |

The first 5 variants above that were never detected:

CDR-L1,CDR-L2,CDR-L3,Kd,seen in,control signals
KPSQSVLYESRNMNSVA,WQSTRES,QQYHRLPLS,nd,0 of 3,1 of 9
KSQQSVLYESRNSNSVP,WASTRES,QQYHRLPLS,nd,0 of 3,0 of 9
KSVQSVLYESRNNNSVI,WASTRES,QQYHRLPLS,nd,0 of 3,1 of 9
KSSQSVLYESRNCNSCA,WASTRES,QQYHRLPLS,nd,0 of 3,0 of 9
KSSQSVLYESRNHNLLA,WASTRES,QQYHRLPLS,nd,0 of 3,0 of 9

For reference, the parent read 4.4 nM as the reference entry and 48 nM as a member of this library.
As a blank, each scFv also met three strains without target: over library AAYL50, 18% of these pairings were detected, typically at 15 µM and seldom below 970 nM. The control count says in how many pairings with the empty strains this scFv gave a signal.